# Test results published in ChEMBL document CHEMBL4842361, “Design, synthesis and biological activities of benzo[d]imidazo[1,2-a]imidazole derivatives as TRPM2-specfic inhibitors” (Eur J Med Chem, 2021).
# By UniProt entry, the sequences of proteins in these tests, tags left out.
# UniProt O94759, whole entry: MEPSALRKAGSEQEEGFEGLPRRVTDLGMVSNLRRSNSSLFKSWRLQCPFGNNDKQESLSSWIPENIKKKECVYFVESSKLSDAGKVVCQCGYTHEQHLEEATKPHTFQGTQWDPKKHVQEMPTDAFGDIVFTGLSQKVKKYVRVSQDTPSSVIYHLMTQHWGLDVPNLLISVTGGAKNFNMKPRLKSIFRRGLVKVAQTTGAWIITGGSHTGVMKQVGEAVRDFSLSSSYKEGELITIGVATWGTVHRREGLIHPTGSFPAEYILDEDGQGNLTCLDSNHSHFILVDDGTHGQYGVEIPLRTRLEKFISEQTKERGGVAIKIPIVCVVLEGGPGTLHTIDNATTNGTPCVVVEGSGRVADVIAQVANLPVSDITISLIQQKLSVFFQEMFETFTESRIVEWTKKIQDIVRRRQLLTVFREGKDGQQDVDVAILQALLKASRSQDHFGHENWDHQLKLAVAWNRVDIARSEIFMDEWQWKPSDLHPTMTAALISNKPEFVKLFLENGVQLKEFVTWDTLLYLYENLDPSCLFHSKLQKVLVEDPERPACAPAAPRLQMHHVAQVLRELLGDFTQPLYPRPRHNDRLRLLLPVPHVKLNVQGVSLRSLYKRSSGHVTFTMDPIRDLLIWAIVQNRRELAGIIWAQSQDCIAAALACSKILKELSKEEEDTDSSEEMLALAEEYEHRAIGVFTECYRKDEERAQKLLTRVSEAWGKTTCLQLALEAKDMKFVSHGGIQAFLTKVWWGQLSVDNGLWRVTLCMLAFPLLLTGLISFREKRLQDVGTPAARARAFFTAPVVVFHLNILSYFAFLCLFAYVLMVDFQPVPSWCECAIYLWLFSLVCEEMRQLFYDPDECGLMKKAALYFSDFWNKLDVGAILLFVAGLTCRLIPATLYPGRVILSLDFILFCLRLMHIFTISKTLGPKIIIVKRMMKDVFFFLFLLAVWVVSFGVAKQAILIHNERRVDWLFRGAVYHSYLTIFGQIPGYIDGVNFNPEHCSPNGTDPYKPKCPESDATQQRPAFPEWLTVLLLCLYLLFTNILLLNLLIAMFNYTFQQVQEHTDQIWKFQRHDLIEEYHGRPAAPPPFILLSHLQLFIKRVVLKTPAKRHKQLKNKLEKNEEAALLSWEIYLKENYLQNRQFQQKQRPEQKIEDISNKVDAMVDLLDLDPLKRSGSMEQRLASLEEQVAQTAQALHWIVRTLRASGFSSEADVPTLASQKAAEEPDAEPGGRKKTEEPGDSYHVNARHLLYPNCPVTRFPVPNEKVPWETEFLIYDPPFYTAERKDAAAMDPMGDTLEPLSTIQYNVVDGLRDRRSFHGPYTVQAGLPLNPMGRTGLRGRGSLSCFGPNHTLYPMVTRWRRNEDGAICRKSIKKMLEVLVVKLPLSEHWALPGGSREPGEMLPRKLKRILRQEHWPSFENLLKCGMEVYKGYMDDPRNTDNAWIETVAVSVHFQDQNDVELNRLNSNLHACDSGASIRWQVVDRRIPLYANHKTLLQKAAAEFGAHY
# Biological target: Transient receptor potential cation channel subfamily M member 2 (Homo sapiens, UniProt O94759)
# Assay: Inhibition of human TRPM2 expressed in HEK293T cells cotransfected with GFP assessed as reduction in ADPR-induced current by whole cell patch-clamp method
# Type: cell-based
smiles,measurement,value
NCCOB(c1ccccc1)c1ccccc1,IC50,5 µM
